Tests used:
[1] = test system: HCT116 human colon carcinoma xenograft; assay: HCT116 xenograft model in nude mice (hypoxic tumor); format: in vivo; details: comparison of HCT116 and 786O xenografts in nude mice
Description: Human tumor cell lines HCT116 (ATCC #CRL-247; Schroy P C, et al. Cancer 76: 201-209, 1995) and 786-O (ATCC #CRL-1932; Williams R D, et al. In Vitro 12: 623-627, 1976), were obtained from the American Type Culture Collection (Manassus, Va., USA) were cultured using routine methods until a sufficient number of cells were obtained for implantation. Studies were conducted on animals between 7 and 12 weeks of age at implantation. To implant HCT116 tumor cells into nude mice, the cells were trypsinized, washed in PBS and resuspended at a concentration of 75×10^6 cells/ml in McCoy's modified medium with 50% of BD Matrigel® Basement Membrane Matrix (BD Biosciences®, Bedford, Mass., USA). To implant 786-O tumor cells into nude mice, the cells were trypsinized as above, washed in PBS and resuspended at a concentration of 75×10^6 cells/ml in RPMI 1640 medium with 50% of BD Matrigel® Basement Membrane Matrix. […] Tumor volumes (V) were calculated by caliper measurement of the width (W), length (L) and thickness (T) of tumors using the following formula: V=0.5236×(L×W×T). […]
As above, HCT116 and 786-O cells were cultured and implanted into nude mice using the methods in the previous example. Tumor growth was measured using calipers. […]
Tumor volume was monitored throughout the course of the study, until up to about 40 days from the date of tumor implantation. […]

[2] = test system: EGFR-expressing metastatic CRC; details: ERFLOX combination; cited from earlier work
[3] = test system: EGFR-expressing metastatic CRC; details: cited from earlier work

cetuximab: antibody that binds specifically to the epidermal growth factor receptor (EGFR, HER1, c-ErbB-1)
efficacy at slowing tumor growth in HCT116 (high hypoxia) versus 786O (low hypoxia) tumors [1]: not found to work better in the tumors with a higher level of hypoxia | major grade 3/4 toxicities [2]: diarrhea, neutropenia and acne-like rash | safety profile [2]: acceptable safety profile | grade 3/4 asthenia ([3]; cetuximab with FOLFIRI): 7% | grade 3/4 diarrhea ([3]; cetuximab with FOLFIRI): 14% | grade 3/4 skin reactions ([3]; cetuximab with FOLFIRI): 7% | effect on typical grade 3/4 toxicities of FOLFIRI ([3]; in vivo): does not appear to aggravate the typical grade 3/4 toxicities of FOLFIRI

Source: patent US20140024030A1, “PRESELECTION OF SUBJECTS FOR THERAPEUTIC TREATMENT WITH OXYGEN SENSITIVE AGENTS BASED IN HYPOXIC STATUS” (priority 2010, published 2014)
